# Source: patent US4352810A, “1-Substituted hydroxyiminomethyl-pyridinium salts, with an activity against organophosphate poisonings” (dated 1982)
# Sequences of proteins named here, by UniProt entry; tags and fusion partners are left off. Residues count along the entry.
# UniProt P23795, 31-614 isoform 2 limits assumed: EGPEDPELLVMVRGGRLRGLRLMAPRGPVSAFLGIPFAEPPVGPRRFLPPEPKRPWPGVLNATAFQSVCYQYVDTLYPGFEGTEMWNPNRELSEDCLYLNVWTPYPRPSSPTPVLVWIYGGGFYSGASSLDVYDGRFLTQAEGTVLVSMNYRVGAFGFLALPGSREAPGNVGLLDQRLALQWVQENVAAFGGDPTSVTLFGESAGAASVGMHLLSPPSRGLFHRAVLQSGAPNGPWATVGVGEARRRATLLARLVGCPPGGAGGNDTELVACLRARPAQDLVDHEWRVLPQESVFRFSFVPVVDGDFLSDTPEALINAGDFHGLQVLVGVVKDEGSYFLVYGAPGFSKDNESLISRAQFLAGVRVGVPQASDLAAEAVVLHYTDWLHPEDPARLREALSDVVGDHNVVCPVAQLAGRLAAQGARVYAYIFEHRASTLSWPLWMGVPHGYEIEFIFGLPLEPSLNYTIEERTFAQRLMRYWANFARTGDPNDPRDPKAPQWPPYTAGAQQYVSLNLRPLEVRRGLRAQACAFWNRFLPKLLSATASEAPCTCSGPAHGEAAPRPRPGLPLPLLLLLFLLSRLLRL
# Molecular target: tabun-inhibited acetylcholinesterase (Bos taurus, UniProt P23795)
# Settings: 10 μM; for kobs, velocity constant of the reactivation process: pH 7.5, 25° C. (Table B); for % react after 2h / % react, percentage reactivation after 24 hours (footnote a): pH 7.5, 25° C.; for % react after 2h: 2 hours (Table B); for % react, percentage reactivation after 24 hours (footnote a): 24 hours (Table B)
smiles,measurement,value
ON=Cc1cccc[n+]1Cc1ccc(C[n+]2ccccc2C=NO)cc1,"kobs, velocity constant of the reactivation process",1.38 ± 0.06 10^-3 min^-1
same,% react after 2h,12%
Cc1ccccc1C[n+]1ccccc1C=NO,"kobs, velocity constant of the reactivation process",1.6 ± 0.1 10^-3 min^-1
same,% react after 2h,13%
ON=Cc1cccc[n+]1Cc1ccccc1,"kobs, velocity constant of the reactivation process",5.83 ± 0.09 10^-3 min^-1
same,% react after 2h,41%
ON=Cc1cc[n+](Cc2ccccc2)cc1,"kobs, velocity constant of the reactivation process","< 0,1 10^-3 min^-1"
same,"% react, percentage reactivation after 24 hours (footnote a)",3%
ON=Cc1cccc[n+]1C(c1ccccc1)c1ccccc1,"kobs, velocity constant of the reactivation process",1.06 ± 0.04 10^-3 min^-1
same,% react after 2h,7%
Cc1ccc(C[n+]2ccccc2C=NO)cc1,"kobs, velocity constant of the reactivation process",3.44 ± 0.06 10^-3 min^-1
same,% react after 2h,28%
ON=Cc1cc[n+](Cc2ccc(C[n+]3ccc(C=NO)cc3)cc2)cc1,"kobs, velocity constant of the reactivation process",no first order
same,% react after 2h,33%
ON=Cc1cc[n+](Cc2ccccn2)cc1,"kobs, velocity constant of the reactivation process",< 0.1 10^-3 min^-1
same,"% react, percentage reactivation after 24 hours (footnote a)",3%
